Values quoted from earlier work as cited in paper PMC11938273 (Journal of Chemical Information and Modeling, 2025).

Settings: in vivo; cited from earlier work

(R)-2-fluoroethyl 1-(1-phenylethyl)-1H-imidazole-5-carboxylate [Fluoroethyl Etomidate (FETO)]
CNS status: Positive

rac-(4R,4aS,6R,7R,7aR,12bS)-3-(cyclopropylmethyl)-6-((S)-2-hydroxy-3,3-dimethylbutan-2-yl)-7-methoxy-1,2,3,4,5,6,7,7a-octahydro-4a,7-ethano-4,12-methanobenzofuro[3,2-e]isoquinolin-9-ol [Buprenorphine]
CNS status: Positive
